The assay can be described thus: Odor evaluation by 3-4 panelists of activator, waving composition and hair tresses. On the procedure: The disulfide or thiol additive was added in the concentration indicated in Tables 3 and 4, to 200 g of neat glyceryl monothioglycolate (GMr) in a 250 mL beaker.
Odor evaluation was conducted by 3-4 panelists who rated the odors on a scale of 1-5 where 1=no malodor and 5=extreme malodor. […] To this solution was added two tresses of dark brown, virgin hair (1 inch wide, 6 inches long), that had been washed with a 10% solution of SLS and soaked in synthetic sweate^8 at 37° C. for 17 hr, then lightly rinsed. The beaker containing the GMT activator was covered with foil and was allowed to sit for 5 to 10 minutes prior to odor evaluation. The tresses were then allowed to process in the wave composition for 20 minutes at room temperature in a covered beaker. The tresses were rinsed with tap water, towel blotted, then added to 80 mL of Matrix Opticurl Rebonding Neutralizer and processed for 5 minutes. After rinsing, the damp hair was evaluated for odor.
8. Recipe for synthetic sweat: 10 g sodium chloride, 1 g potassium hydrogen phosphate, 0.25 g histidine, lactic acid to adjust pH to 3.2 and water to make 1 L.

The values that follow come from patent US6302119A, “Low odor permanent waving compositions containing a disulfide” (priority 1999, dated 2001).

Several values for one entry are separate records, joined by “and”; a condition that tells them apart may be missing. Equal entries are not always repeated.

For the molecule `CC(C)(CO)[C@@H](O)C(=O)NCCC(=O)NCCSSCCNC(=O)CCNC(=O)[C@H](O)C(C)(C)CO` [pantethine], the “Odor of hair rating” value is 1.4 and 2.8; the “Odor rating of waving composition (with activator)” value was 4.5 and 3.0.
